# Melting point values, as collected for the OPERA models

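The numbers are reported measurements, compiled and curated for the OPERA QSAR suite. A listed value is a point estimate from one report or more. Method and conditions are not stated for these values. A value may pool stereoisomers or salt forms, and the file does not say which form was measured. Some upstream entries may be estimates or bounds without being marked so.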

Melting points are in °C. Cells with "n/a" have no entry in this list.

compound,name,mp (°C)
Clc1cccc(Cl)c1C(Cl)Cl,n/a,25.5
COc1c(F)cc(CBr)cc1F,"5-(Bromomethyl)-1,3-difluoro-2-methoxybenzene",40.5
O=C(CCl)NCCc1cccs1,2-Chloro-N-[2-(thiophen-2-yl)ethyl]acetamide,17
CCOP(Oc1c(C)cc(C(C)(C)C)cc1C(C)(C)C)Oc1c(C)cc(C(C)(C)C)cc1C(C)(C)C,"Bis(2,4-di-tert-butyl-6-methylphenyl)ethyl phosphite",90
Cc1cc(C)cc(OP(=O)(Oc2cc(C)cc(C)c2)Oc2cc(C)cc(C)c2)c1,"Tris(3,5-xylenyl)phosphate",46
NCc1ccc(Cl)nc1,5-(Aminomethyl)-2-chloropyridine,29.5
C=CCC1(C(C)C#CCC)C(=O)N=C([O-])N(C)C1=O.[Na+] (stereo unspecified),Sodium methohexital,61.94
Cc1cccc(C)c1OP(=O)(Oc1cccc(OP(=O)(Oc2c(C)cccc2C)Oc2c(C)cccc2C)c1)Oc1c(C)cccc1C,n/a,94.85
Brc1ccc(Oc2ccccc2Br)c(Br)c1,"2,2',4-Tribromodiphenyl ether",20
Cc1ccc(CN)cn1,(6-methylpyridin-3-yl)methanamine,60
COc1ccc(Cl)cc1CCl,4-chloro-2-(chloromethyl)-1-methoxybenzene,45
O=C(c1cc(Cl)c[nH]1)C(Cl)(Cl)Cl,"2,2,2-trichloro-1-(4-chloro-1H-pyrrol-2-yl)ethanone",129
CCCCOCC1CO1 (stereo unspecified),Butyl glycidyl ether,-65.5
C[C@]12C[C@@H](O)[C@H]3[C@@H](CCC4=CC(=O)CC[C@@H]43)[C@@H]1CCC2=O,"11alpha-Hydroxy-estr-4-ene-3,17-dione",216.4
C[C@]12CC[C@H]3[C@@H](CCC4=CC(=O)CC[C@@]43C=O)[C@@H]1CC[C@@H]2O,19-Aldotestosterone,155
ClCc1cn2cccnc2n1,"2-(chloromethyl)imidazo[1,2-a]pyrimidine",126
CC(C)=CCC1(C(C)C)C(=O)NC(=O)NC1=O,"Barbituric acid, 5-(2-isopentenyl)-5-isopropyl-",131
C/C=C1/C[C@@H](C)[C@@](C)(O)C(=O)OC[C@H]2CCN3CC[C@@H](OC1=O)[C@@H]23,Platyphylline,129
C=CCC1(CC(C)O)C(=O)NC(=O)NC1=O (stereo unspecified),n/a,158
NCC(O)c1ccccc1F (stereo unspecified),2-Amino-1-(2-fluorophenyl)ethan-1-ol,63
CC(C)C1(C(C)C)C(O)=NC(=O)N=C1O,"BARBITURIC ACID,DI-IPR",228
CCCCOC(=O)CCC(C)(OOC(C)(C)C)OOC(C)(C)C,"Butyl 4,4-di(tert-butylperoxy)valerate",-13.7
ClC(Cl)=C(c1ccc(Cl)cc1)c1ccccc1Cl,"o,p'-DDE",80
CCN1CCN(Cc2ccc(N)cc2)CC1,4-[(4-Ethylpiperazin-1-yl)methyl]aniline,73
Cc1cc(C(=O)O)c(C)n1C(C)C,"2,5-Dimethyl-1-(propan-2-yl)-1H-pyrrole-3-carboxylic acid",179
CCCCC(CC)COC(=O)c1c(Br)c(Br)c(Br)c(Br)c1C(=O)OCC(CC)CCCC (stereo unspecified),Bis(2-ethylhexyl) tetrabromophthalate,-27
Fc1cc(CBr)ccc1Cl,4-Chloro-3-fluorobenzyl bromide,31.5
Cc1nnc(CCl)o1,"2-(chloromethyl)-5-methyl-1,3,4-oxadiazole",36
Brc1ccc(Oc2ccccc2)c(Br)c1,"2,4-Dibromo-1-phenoxybenzene",20
C[C@@H]1C[C@H]2CC(=O)[C@H]3CCCN4CCC[C@H]2[C@]34C1,Lycopodine,114
COC(=O)C=Cc1ccc(Cl)cc1,Methyl 3-(4-chlorophenyl)-2-propenoate,75.5
CCCCCCCCCCCCCCOC(=O)Cl,Tetradecyl chloroformate,4
NC(=O)OCC(F)(F)F,"2,2,2-Trifluoroethyl carbamate",43
CCNC(C)Cc1ccc(OC)cc1 (stereo unspecified),N-Ethyl-p-methoxy-alpha-methylphenethylamine,-10.33
CC(C)CP(=S)([S-])CC(C)C.[Na+],Sodium diisobutyldithiophosphinate,186

A selection of 4 entries from above:

compound	name	mp (°C)
NCc1ccc(Cl)nc1	5-(Aminomethyl)-2-chloropyridine	29.5
CCCCOCC1CO1 (stereo unspecified)	Butyl glycidyl ether	-65.5
CCCCCCCCCCCCCCOC(=O)Cl	Tetradecyl chloroformate	4
CCCCC(CC)COC(=O)c1c(Br)c(Br)c(Br)c(Br)c1C(=O)OCC(CC)CCCC (stereo unspecified)	Bis(2-ethylhexyl) tetrabromophthalate	-27

Values as listed in the OPERA 2.9 repository of K. Mansouri.